Measured values reported in US7078380B2, “Antibacterial agents comprising conjugates of glycopeptides and peptidic membrane associating elements” (priority 2000, dated 2006).

Experiment: Haemolysis assay
Assay type: cell-based
Conditions: sensitised sheep erythrocytes, 1 hour at 37° C., printed μM or uM, read-out: LC50 (concentration of compound required to give 50% lysis)
Procedure: Lysis of sensitised sheep erythrocytes was measured using a standard haemolytic assay using a v-bottom microtitre plate format as follows:
50 microlitres of a range of concentrations of compound diluted in Hepes buffer were mixed with 100 microlitres of sensitised sheep erythrocytes and then incubated for 1 hour at 37° C. Samples were spun at 1600 rpm at ambient temperature for 3 minutes before transferring 150 microlitres of supernatant to a flat bottom microtitre plate and determining the absorption at 405 or 410 nm. Maximum lysis (Amax) was determined by incubating serum with erythrbcytes in the presence of human serum diluted 1:400 (final concentration in assay mixture) in 0.1 M Hepes/0.15 M NaCl/0.1% gelatin pH 7.4. Background lysis (Ao) was determined by incubating erythrocytes in the absence of any serum or compound, using PBS as a control.

`CC[C@H](C)[C@H](NC(=O)CN)C(=O)NCC(=O)N[C@@H](C)C(=O)N[C@H](C(=O)N[C@@H](CC(C)C)C(=O)N[C@@H](CCCCN)C(=O)N[C@H](C(=O)N[C@@H](CC(C)C)C(=O)N[C@H](C(=O)N[C@H](C(=O)NCC(=O)N[C@@H](CC(C)C)C(=O)N1CCC[C@H]1C(=O)N[C@@H](C)C(=O)N[C@@H](CC(C)C)C(=O)N[C@H](C(=O)N[C@@H](CO)C(=O)N[C@@H](Cc1c[nH]c2ccccc12)C(=O)N[C@H](C(=O)N[C@@H](CCCCN)C(=O)N[C@@H](CCCNC(=N)N)C(=O)N[C@@H](CCCCN)C(=O)N[C@@H](CCCNC(=N)N)C(=O)N[C@@H](CCC(N)=O)C(=O)N[C@@H](CCC(N)=O)C(=O)N[C@@H](CSSc1ccccn1)C(N)=O)[C@@H](C)CC)[C@@H](C)CC)[C@@H](C)O)[C@@H](C)O)C(C)C)C(C)C` [APT2235] showed an HC50 at 1 hour of 1.2 µM.
